The record followed here is patent US20040039173A1 (SALK INSTITUTE FOR BIOLOGICAL STUDIES, published 2004).

The assay deals with T1, human CRF receptor, subtype A, variant 1 (hCRF-RA1), encoded by clone hctCRFR (human, UniProt P34998 24-415).
T1 construct: Transiently expressed in COSM6 cells; Clone hctCRFR (ATCC 75474) and clone CRF-R1 are both said to encode hCRF-RA1; also called CRF-R1; hctCRF receptor
T1 sequence: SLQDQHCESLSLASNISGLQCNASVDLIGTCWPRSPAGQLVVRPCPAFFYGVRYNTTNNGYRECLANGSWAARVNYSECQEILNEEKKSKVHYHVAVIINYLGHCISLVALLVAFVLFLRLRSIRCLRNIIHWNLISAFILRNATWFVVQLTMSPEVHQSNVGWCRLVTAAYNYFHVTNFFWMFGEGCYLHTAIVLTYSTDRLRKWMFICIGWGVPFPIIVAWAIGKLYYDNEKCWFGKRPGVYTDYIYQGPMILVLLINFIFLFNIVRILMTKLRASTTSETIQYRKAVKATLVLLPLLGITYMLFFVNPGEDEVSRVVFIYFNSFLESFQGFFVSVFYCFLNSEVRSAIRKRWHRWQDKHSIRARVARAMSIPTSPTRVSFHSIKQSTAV
The experiment in a line: binding to the receptor encoded by hctCRFR in COSM6 cell membranes (competitive radioreceptor assay of Example 3). The protocol:
Two days after transfection, the cells were washed twice with 1 ml HDB and were detached by incubation for 15 min at room temperature in 0.5 mM EDTA in HDB. After pelleting, the cells were washed twice with HDB, and then homogenized in 5% sucrose (16 ml/150 mm dish). The homogenate was centrifuged at 600×g for 5 minutes, and the resulting supernatant was centrifuged at 40,000×g for 20 minutes.
The reaction was terminated by filtration through GF/C (Whatman) filters, prewetted with 1% BSA, 10 mM HEPES, pH 7.5. The filters were washed 4 times with 1 ml 0.1% BSA, 50 mM Tris, pH 7.5.

B1: ovine CRF (ligand)
peptide: SQEPPISLDLTFHLLREVLEMTKADQLAQQAHSNRKLLDIA
modifications: chain 1: natural C-terminal amide (Ala41-NH2), which the letters cannot carry and the passages shown do not state
notes: also called oCRF
The term Kd denotes a measure of binding affinity in units of concentration. A lower Kd goes with a tighter complex. The molecule B1 displayed an equilibrium dissociation constant (Kd) of 2.3 nM.
